The text below walks through data of BindingDB's records for doi:10.1021/jm050680m (Johnson & Johnson Pharmaceutical Research and Development, 2005).

The nature of experiment [1]: Antiproliferative activity against PDGF-BB stimulated HCASMC.
Experiment in experiment [2]: as above
The source holds these as a separate data set.

Broadly, the IC50 is the concentration that gives 50% inhibition.

For the compound `COc1cc2c(cc1OC)-c1n[nH]c(Nc3cccc(Cl)c3)c1C2` [3-chloro-N-(6,7-dimethoxy-2,4-dihydroindeno[1,2-c]pyrazol-3-yl)phenylamine], 268 nM corresponded to half-maximal inhibition in experiment [1] (IC50).

`COc1cc2c(cc1OC)-c1n[nH]c(Nc3cccc(C)c3)c1C2` [3-methyl-N-(6,7-dimethoxy-2,4-dihydroindeno[1,2-c]pyrazol-3-yl)phenylamine]: in experiment [2], half-maximal inhibition (IC50) was put at 188 nM. Turning to `COc1ccc2c(c1)-c1n[nH]c(Nc3ccccc3)c1C2` [(7-methoxy-2,4-dihydroindeno[1,2-c]pyrazol-3-yl)phenylamine], the IC50 in experiment [2] stood at 9 nM.
